Test [1] is described as follows: S. cerevisiae RM11-1a growth modifiers, primary screen, strain RM11-1a, OD600, basal, 24 h (AID 1177).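 Note: cultures grown under basal conditions with no added stressor.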 The note with it: OD600, 24 h, higher = more signal, called active from +8 up or from −8 down.
The nature of test [2]: RPMI8226 myeloma cell viability, profiling panel, resazurin fluorescence, basal, 24 h, PK04 Diversity Set (AID 1180).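 Note: RPMI8826 multiple myeloma cell line at 5000 cells per well.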 The note with it: higher = more signal.
Test [3] concerns the target E3 ubiquitin-protein ligase XIAP (Homo sapiens) (UniProt P98170). The test is described as follows: XIAP binders, primary screen, biophysical, small-molecule microarray, fluorescence 635 nm (AID 1181).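 Note: score merges 667 nm emission and signal to noise over triplicate slides.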 The note with it: small-molecule microarray binding, higher = more signal.
In test [4] the test system is XIP peptide (Xip251-270) binding. In words: small-molecule binders of XIP peptide, primary screen, biochemical, small-molecule microarray, fluorescence 635/667 nm, 0.1 µg/mL protein (AID 1182). The note with it: fluorescent protein binding, 635 nm, higher = more signal, called active from +8 up or from −8 down.
Another test deals with XIP peptide (Xip251-270). In words: small-molecule binders of XIP peptide, primary screen, biochemical, small-molecule microarray, fluorescence 635/667 nm, 0.5 µg/mL protein (AID 1183). The note with it: small-molecule microarray binding, fluorescence 635 nm; higher = more signal.
In test [5] the target is Homeobox protein Hox-A13 (Mus musculus) (UniProt Q62424). The test is described as follows: inhibitors of HoxA13-DNA binding, primary screen, biochemical, fluorescence polarization, labeled oligonucleotide (AID 1185). The note with it: 15 min, higher = more signal, called active from +8 up or from −8 down. In general terms: Fluorescence polarisation rises when a labelled molecule tumbles more slowly, as on binding a larger partner.

The chains behind the UniProt entries cited, without tags or fusion partners. Where a name states a change or a piece, a line headed by the entry shows the natural chain unless it says otherwise.
UniProt P98170, whole entry, looked up: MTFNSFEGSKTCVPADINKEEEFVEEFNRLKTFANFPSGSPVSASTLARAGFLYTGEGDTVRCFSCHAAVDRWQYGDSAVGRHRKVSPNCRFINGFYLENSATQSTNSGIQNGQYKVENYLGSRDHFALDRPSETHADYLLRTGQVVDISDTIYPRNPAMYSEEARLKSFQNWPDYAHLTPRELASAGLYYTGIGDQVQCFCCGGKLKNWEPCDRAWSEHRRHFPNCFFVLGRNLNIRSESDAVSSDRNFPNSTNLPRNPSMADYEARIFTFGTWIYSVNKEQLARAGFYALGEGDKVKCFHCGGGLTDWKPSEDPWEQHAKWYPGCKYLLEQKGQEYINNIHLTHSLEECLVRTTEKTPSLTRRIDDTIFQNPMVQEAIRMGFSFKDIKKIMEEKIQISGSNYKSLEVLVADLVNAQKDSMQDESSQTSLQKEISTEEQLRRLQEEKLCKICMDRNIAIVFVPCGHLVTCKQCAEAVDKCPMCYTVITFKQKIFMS
UniProt Q62424: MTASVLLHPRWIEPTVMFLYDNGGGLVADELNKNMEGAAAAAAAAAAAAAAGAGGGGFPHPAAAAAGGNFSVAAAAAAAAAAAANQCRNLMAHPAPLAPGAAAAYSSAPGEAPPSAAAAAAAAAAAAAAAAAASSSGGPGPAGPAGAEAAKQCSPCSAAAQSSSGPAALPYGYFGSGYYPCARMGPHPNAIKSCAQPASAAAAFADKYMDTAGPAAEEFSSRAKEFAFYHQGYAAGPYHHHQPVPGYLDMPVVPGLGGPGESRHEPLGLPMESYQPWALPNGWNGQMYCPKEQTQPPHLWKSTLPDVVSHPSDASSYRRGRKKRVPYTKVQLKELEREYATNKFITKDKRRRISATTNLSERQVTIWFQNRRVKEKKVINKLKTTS

The list shows a part of the results, in another mix than the full data. This is one part of the list. Calls of active or inactive are those of the source.

`COP(=O)(/N=C1/CC(CCCO)=CC(c2ccc(CN3CCCC3)cc2)N1Cc1cc2c(cc1Br)OCO2)OC` (stereo not given): the figures for the z-score in test [1], in test [2] and in test [5] were inactive: -2.8, 0.478 and inactive: -1.63, respectively. The composite z-score in test [3] was 0.0847; in test [4], inactive: -0.0668; with XIP peptide (Xip251-270), 0.78.
On to `CN1/C(=N\P(=O)(Oc2ccccc2)Oc2ccccc2)CC(c2ccc(CO)cc2)=CC1c1cccs1` (stereo not given), for which the z-score in test [1] was inactive: 0.91; in test [2], 1.35; in test [5], inactive: -2.59. The composite z-score in test [3] is 0.0003; in test [4], inactive: 1.01; in the test with XIP peptide (Xip251-270) it was 0.158.
As to `COP(=O)(/N=C1/CC(c2ccc(CO)cc2)=CC(c2cccs2)N1C)OC` (stereo not given), the z-score is inactive: 0.599 in test [1], 0.289 in test [2] and inactive: -3.41 in test [5]. Further, the results for the composite z-score (in test [3]; in test [4]; in the test on XIP peptide (Xip251-270)) were 0.0825, inactive: -0.0538 and -0.378, respectively.
On to `COP(=O)(/N=C1/CC(c2ccc(CO)cc2)=CC(C2CC2)N1C)OC` (stereo not given), for which the z-score in test [1] is inactive: -2.11; in test [2], 0.746; in test [5], inactive: -2.51. The composite z-score in test [3] was 0.167; in test [4] it was inactive: -0.0137; in the test on XIP peptide (Xip251-270), 0.687.
Turning to `COP(=O)(/N=C1/CC(CCCO)=CC(C2CC2)N1C)OC` (stereo not given), the z-score was inactive: -2.11 in test [1], 0.098 in test [2] and inactive: -2.81 in test [5]. Also, the composite z-score in test [3] was 0.411; in test [4], inactive: -0.21; with XIP peptide (Xip251-270), 0.0312.
For `CN1/C(=N\P(=O)(Oc2ccccc2)Oc2ccccc2)CC(CCCO)=CC1C1CC1` (stereo not given), the z-score is inactive: -0.809 in test [1], -0.491 in test [2] and inactive: -5.81 in test [5]. Besides, the composite z-score in test [3] was -0.165; in test [4] it was inactive: -0.126; with XIP peptide (Xip251-270) it was 0.216.
Take `O=P(/N=C1/CC(c2ccc(CO)cc2)=CC(C2CC2)N1Cc1cc2c(cc1Br)OCO2)(Oc1ccccc1)Oc1ccccc1` (stereo not given): the z-score in test [1] was inactive: 0.425; in test [2] it was -1.76; in test [5], inactive: -1.75. Moreover, the composite z-score in test [3] was 0.0192; in test [4], inactive: 0.712; in the test on XIP peptide (Xip251-270) it was 0.814.
On to `O=P(/N=C1/CC(CCCO)=CC(c2cccs2)N1Cc1cccc(OC(F)(F)F)c1)(Oc1ccccc1)Oc1ccccc1` (stereo not given), for which the z-score in test [1] was inactive: 0.433; in test [2], -0.0317; in test [5] it was inactive: -4.29. Moreover, the values for the composite z-score (in test [3]; in test [4]; in the test on XIP peptide (Xip251-270)) were 0.293, inactive: 1.57 and 0.576, respectively.
For `COP(=O)(/N=C1/CC(CCCO)=CC(C2CC2)N1Cc1cc2c(cc1Br)OCO2)OC` (stereo not given), the z-score in test [1] is inactive: -2.06; in test [2], -0.0339; in test [5], inactive: -5.53. In addition, the composite z-score in test [3] is 0.403; in test [4], inactive: 0.783; in the test on XIP peptide (Xip251-270) it was -0.0026.
Turning to `O=P(/N=C1/CC(CCCO)=CC(c2ccc(CN3CCCC3)cc2)N1Cc1sc2ccccc2c1Cl)(Oc1ccccc1)Oc1ccccc1` (stereo not given), the figures for the z-score in test [1], in test [2] and in test [5] were inactive: -1.43, -2.06 and inactive: -2.94, respectively. Further, the composite z-score in test [3] is -0.0114; in test [4], inactive: 0.121; with XIP peptide (Xip251-270) it was 0.369.
In the case of `CN1/C(=N\P(=O)(Oc2ccccc2)Oc2ccccc2)CC(CCCO)=CC1c1cccs1` (stereo not given), the figures for the z-score in test [1], in test [2] and in test [5] were inactive: -0.0522, -0.913 and inactive: -6.5, respectively. The composite z-score in test [3] is 0.0361; in test [4], inactive: 0.259; with XIP peptide (Xip251-270) it was 0.882.
For the compound `COP(=O)(/N=C1/CC(CCCO)=CC(C)N1Cc1cccc(OC(F)(F)F)c1)OC` (stereo not given), the z-score in test [1] is inactive: -2.02; in test [2] it was 0.299; in test [5] it was inactive: -4.67. In addition, the composite z-score was 0.122 in test [3], inactive: 1.45 in test [4] and -0.288 in the test on XIP peptide (Xip251-270).
As for `O=P(/N=C1/CC(CCCO)=CC(c2ccc(CN3CCCC3)cc2)N1Cc1cc2c(cc1Br)OCO2)(Oc1ccccc1)Oc1ccccc1` (stereo not given), the z-score in test [1] was inactive: -0.529; in test [2], -0.253; in test [5], inactive: -2.59. For the same compound, the composite z-score in test [3] was -0.0172; in test [4], inactive: 1.24; with XIP peptide (Xip251-270), 0.595.
`COP(=O)(/N=C1/CC(CCCO)=CC(C2CC2)N1Cc1sc2ccccc2c1Cl)OC` (stereo not given): the results for the z-score in test [1], in test [2] and in test [5] were inactive: 0.219, -0.0924 and inactive: -4.46, respectively. The composite z-score in test [3] is 0.287; in test [4], inactive: 0.615; in the test on XIP peptide (Xip251-270), 0.297.
Consider `COP(=O)(/N=C1/CC(CCCO)=CC(c2ccc(CN3CCCC3)cc2)N1Cc1cccc(OC(F)(F)F)c1)OC` (stereo not given), for which the z-score in test [1] was inactive: -1.64; in test [2] it was 0.212; in test [5], inactive: -5.3. Besides, the composite z-score is 0.199 in test [3], inactive: 1.65 in test [4] and 0.0666 in the test on XIP peptide (Xip251-270).

The values above are taken from PubChem BioAssay.
